{"source": "paper PMC9204313", "origin": "cited, not measured here", "key": {"CYR61 (Homo sapiens)": {"target": "CYR61 (Homo sapiens) (UniProt O00622)", "test": "SPR", "settings": "cited from earlier work"}, "Human fibrinogen (human)": {"target": "Human fibrinogen (human) (UniProt P02671)", "test": "SPR", "settings": "cited from earlier work"}}}
{"substance": "integrin αD I-domain (from UniProt Q13349)", "values": [{"measurement": "Kd", "setting": "CYR61 (Homo sapiens)", "value": 290, "unit": "nM"}, {"measurement": "Kd", "setting": "Human fibrinogen (human)", "value": 760, "unit": "nM"}]}
